These results are taken from ChEMBL document CHEMBL4400531, “Structure-Based Design of N-(5-Phenylthiazol-2-yl)acrylamides as Novel and Potent Glutathione S-Transferase Omega 1 Inhibitors” (J Med Chem, 2019).

The data set can be described thus: Metabolic stability in mouse liver microsomes at 1 uM in presence of NADPH incubated for 45 mins by LC-MS/MS analysis. It counts as ADME, Microsome. As to conditions: read-out: Stability. On the technique in general: Microsomes from liver hold many membrane-bound enzymes, among them those of drug oxidation.

The structures appear in SMILES notation.

`C=CC(=O)Nc1nc(-c2ccc(Cl)cc2)cs1`: the remaining at 0.75 h, 1 µM is 5.36%.
